The assay addresses LANCL2 (Homo sapiens (Human), UniProt Q9NS86). Put plainly: SPR (BIACORE S200) kinetic determination of LANCL2-small molecule interactions. Type of assay: binding. How it is done:
1.1 Reagent Materials • Ligand: LANCL2 • Running buffer: 20 mM MES, 150 mM NaCl, 0.05% P20, pH 6.5, 1% DMSO
Injection conditions for small molecule compounds: a flow rate of 30 μL/min, a binding time of 60 s, a dissociation time of 300 s.
Running buffer: 20 mM MES, 150 mM NaCl, 0.05% P20, pH 6.5, 1% DMSO.
Sample chamber temperature: 25° C.; analysis temperature: 25° C.
Kinetic determination of LANCL2-small molecule interactions was performed. The kinetic parameters of small molecules BT-11 and L-1 to 60 (analytes) binding to LANCL2 (ligand) were determined using BIACORE S200. Data were generated in triplicate in a dose-dependent manner (5-8 titration points) and analyzed to determine binding models (Langmuir, conformational shifts, etc.), real-time association and dissociation constants, and equilibrium dissociation constants. […] Data were analyzed with BIACORE S200T200 evaluation software (version 1), so as to determine affinity binding constants (KD) using a 1:1 binding model.
An optical technique for detecting molecular interactions, SPR, was used to measure the binding affinity between LANCL2 and a ligand thereof (compound to be tested). […] The change in total mass on the chip surface, corresponding to a small binding to the protein, was measured. […] The steady-state affinity (Kd) for each interaction could be measured by plotting equilibrium binding levels against compound concentrations.
(In general: In SPR one partner is held on a chip, and binding of the other changes the refractive index at the surface.)

By UniProt entry, the sequences of proteins in these tests, tags left out.
UniProt Q9NS86, whole entry, species assumed: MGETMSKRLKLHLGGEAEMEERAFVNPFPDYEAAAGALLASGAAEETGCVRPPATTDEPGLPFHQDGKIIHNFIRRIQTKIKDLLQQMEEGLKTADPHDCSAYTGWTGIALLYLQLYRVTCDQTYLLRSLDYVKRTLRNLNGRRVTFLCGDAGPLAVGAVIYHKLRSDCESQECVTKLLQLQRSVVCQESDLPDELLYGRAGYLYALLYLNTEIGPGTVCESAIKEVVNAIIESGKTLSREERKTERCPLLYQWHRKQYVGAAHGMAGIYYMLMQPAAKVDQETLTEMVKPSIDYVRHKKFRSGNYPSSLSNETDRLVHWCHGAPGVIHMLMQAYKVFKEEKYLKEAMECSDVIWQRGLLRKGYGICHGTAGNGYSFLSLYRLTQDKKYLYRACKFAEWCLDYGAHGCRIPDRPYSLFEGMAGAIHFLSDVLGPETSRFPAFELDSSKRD

Here are results for one molecule from patent US20240101552A1, “CARBONYL HETEROCYCLIC COMPOUND AND APPLICATION THEREOF” (SHANGHAI PHARMACEUTICALS HOLDING CO., LTD., priority 2020, published 2024).

Each structure is given as a SMILES string.

`O=C(c1cccc(-c2nc3ccccc3[nH]2)n1)N1CCN(C(=O)c2cccs2)CC1` [Embodiment L-112, (4-(6-(1H-benzo[d]imidazol-2-yl)picolinoyl)piperazin-1-yl)(thiophen-2-yl)methanone]: for the setting “immobilized LANCL2, 1:1 binding model, pH 6.5, 25° C.”, the Kd was 24.8 µM. Besides, for the setting “maximum binding force”, the “Rmax (RU)” value was 12.7 RU.

One may read the Kd as a measure of binding affinity in units of concentration. High values mean weaker binding, low ones tighter binding.
